Experimental data: paper PMC5522753 (Bioorganic & medicinal chemistry letters, 2016)

Tested on: B and T cells from healthy donors
Test: Differential cytotoxicity: normal B and T-lymphocytes versus CLL cells
Settings: Figure 2

SMILES: CN1C(=O)N[C@H]2[C@@H]3NC(=O)c4cc(Cl)c(Br)n4[C@@H]3C[C@]21O [Compound 3, 14-chloro AglA]
- toxicity toward B and T cells from healthy donors compared to CLL cells: selectivity for CLL leukemia cells was even more apparent
